Conditions: baboons; intra-vaginal doses of 0.3, 0.6 and 0.9 mCi; systemic blood samples

## CCC1(c2ccc(N)cc2)CCC(=O)NC1=O (stereo not shown) [C14-labelled aminoglutethimide, “D,L”-3-“4-Aminophenyl”-3-ethyl-2,6-piperidinedione[Phenyl-14C“U”]]
  blood levels (in words): detectable and there was a dose-response relationship

— US20050049231A1, “Treatment method” (priority 2001, published 2005)
